Laboratory results: PubChem BioAssay (NCATS)
The list shows a part of the results, in another mix than the full data. Records with an inconclusive call do not appear. For part of these data: Entries with a potency or affinity are not part of this list. Activity calls are given as the source filed them. Unless noted, calls come from the whole dose curve; as a rule, active = well fitted curve in the direction sought with a large enough effect; inconclusive = small, poorly fitted or top-dose-only effect, or another doubt; inactive = no such curve, though single readings can be large; an effect the other way counts as inactive or inconclusive.

Protein sequences, listed by entry. Tags and fused reporters are not part of them. Lines headed by an entry give the natural chain unless they say otherwise; changes in a name come on top.
UniProt O94782: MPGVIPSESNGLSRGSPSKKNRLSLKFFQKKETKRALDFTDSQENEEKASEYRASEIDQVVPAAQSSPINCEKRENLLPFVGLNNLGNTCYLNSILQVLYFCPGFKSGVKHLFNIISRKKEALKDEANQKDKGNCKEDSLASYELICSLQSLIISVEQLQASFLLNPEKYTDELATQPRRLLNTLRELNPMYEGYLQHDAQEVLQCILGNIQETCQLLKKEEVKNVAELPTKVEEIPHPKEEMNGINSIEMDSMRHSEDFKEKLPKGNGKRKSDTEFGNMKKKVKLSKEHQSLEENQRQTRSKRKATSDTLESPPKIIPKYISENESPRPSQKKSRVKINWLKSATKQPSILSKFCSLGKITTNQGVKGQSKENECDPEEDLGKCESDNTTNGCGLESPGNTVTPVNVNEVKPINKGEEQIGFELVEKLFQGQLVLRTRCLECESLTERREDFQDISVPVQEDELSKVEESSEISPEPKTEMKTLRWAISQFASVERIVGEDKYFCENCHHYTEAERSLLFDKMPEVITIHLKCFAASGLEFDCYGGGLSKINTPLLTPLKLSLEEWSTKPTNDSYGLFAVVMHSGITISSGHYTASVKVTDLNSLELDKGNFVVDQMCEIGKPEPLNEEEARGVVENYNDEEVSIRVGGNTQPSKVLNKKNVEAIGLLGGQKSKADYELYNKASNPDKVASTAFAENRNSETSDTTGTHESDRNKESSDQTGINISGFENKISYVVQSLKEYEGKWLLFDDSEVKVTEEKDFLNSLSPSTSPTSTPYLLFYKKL
UniProt Q12809: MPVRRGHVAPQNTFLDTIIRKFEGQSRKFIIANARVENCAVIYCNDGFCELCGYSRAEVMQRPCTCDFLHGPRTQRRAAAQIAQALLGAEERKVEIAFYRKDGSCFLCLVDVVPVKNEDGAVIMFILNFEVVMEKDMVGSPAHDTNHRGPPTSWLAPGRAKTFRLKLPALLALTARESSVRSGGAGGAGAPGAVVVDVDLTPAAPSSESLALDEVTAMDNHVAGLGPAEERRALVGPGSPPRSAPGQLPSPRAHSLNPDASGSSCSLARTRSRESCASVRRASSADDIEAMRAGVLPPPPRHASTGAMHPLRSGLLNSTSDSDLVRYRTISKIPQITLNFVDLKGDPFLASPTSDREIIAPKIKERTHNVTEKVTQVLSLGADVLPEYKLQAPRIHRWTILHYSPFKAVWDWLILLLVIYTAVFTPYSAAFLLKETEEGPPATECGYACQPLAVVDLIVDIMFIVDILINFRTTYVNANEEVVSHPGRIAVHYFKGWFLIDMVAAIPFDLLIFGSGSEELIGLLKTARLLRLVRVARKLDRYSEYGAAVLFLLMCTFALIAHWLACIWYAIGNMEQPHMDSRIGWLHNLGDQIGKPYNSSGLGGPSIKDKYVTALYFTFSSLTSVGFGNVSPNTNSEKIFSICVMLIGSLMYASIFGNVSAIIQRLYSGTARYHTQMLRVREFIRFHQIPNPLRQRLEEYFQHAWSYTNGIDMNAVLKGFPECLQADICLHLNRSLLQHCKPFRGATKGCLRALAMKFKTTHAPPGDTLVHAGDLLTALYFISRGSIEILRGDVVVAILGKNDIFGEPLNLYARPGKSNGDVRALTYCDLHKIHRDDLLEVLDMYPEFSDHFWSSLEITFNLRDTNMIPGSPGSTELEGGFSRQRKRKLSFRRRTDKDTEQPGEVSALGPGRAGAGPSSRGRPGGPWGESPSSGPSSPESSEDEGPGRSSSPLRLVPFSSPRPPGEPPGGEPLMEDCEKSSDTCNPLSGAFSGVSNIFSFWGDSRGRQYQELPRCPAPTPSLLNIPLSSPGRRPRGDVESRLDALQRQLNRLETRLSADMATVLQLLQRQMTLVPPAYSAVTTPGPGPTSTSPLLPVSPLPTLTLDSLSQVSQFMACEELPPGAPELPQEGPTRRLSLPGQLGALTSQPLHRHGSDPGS
UniProt P08659, whole entry, looked up: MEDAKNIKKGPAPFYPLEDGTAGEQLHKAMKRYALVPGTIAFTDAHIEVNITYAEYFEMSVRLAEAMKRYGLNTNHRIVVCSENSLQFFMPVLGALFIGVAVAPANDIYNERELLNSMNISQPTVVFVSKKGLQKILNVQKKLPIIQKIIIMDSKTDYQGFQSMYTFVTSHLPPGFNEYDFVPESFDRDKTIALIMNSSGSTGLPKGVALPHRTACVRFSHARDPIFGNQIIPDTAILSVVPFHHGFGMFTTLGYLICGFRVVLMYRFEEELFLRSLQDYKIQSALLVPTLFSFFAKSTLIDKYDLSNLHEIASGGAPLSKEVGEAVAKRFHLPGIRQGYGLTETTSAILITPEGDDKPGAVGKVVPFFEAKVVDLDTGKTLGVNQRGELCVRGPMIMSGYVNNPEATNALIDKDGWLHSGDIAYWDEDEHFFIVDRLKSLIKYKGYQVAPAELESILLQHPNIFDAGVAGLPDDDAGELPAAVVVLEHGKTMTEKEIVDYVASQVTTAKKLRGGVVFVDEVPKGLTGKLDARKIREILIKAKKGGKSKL
UniProt Q07343: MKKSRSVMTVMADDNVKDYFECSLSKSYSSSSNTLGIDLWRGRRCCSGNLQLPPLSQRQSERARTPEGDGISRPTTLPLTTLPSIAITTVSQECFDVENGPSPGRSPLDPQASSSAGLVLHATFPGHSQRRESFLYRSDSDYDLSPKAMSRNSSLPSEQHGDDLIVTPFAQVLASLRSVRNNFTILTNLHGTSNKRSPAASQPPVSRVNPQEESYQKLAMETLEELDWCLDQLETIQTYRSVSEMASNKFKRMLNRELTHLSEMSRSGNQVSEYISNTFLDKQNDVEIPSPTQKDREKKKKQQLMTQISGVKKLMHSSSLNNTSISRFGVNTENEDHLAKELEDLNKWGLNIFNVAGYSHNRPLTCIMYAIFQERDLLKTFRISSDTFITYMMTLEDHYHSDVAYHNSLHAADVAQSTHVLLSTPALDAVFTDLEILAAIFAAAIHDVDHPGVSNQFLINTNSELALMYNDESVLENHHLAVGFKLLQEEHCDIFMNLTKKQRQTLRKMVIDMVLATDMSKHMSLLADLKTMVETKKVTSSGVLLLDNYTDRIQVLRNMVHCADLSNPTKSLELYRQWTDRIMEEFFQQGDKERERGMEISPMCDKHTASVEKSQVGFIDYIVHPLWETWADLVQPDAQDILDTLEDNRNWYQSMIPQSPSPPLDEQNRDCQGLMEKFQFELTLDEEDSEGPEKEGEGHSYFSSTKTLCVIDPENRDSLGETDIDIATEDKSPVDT
UniProt O95398: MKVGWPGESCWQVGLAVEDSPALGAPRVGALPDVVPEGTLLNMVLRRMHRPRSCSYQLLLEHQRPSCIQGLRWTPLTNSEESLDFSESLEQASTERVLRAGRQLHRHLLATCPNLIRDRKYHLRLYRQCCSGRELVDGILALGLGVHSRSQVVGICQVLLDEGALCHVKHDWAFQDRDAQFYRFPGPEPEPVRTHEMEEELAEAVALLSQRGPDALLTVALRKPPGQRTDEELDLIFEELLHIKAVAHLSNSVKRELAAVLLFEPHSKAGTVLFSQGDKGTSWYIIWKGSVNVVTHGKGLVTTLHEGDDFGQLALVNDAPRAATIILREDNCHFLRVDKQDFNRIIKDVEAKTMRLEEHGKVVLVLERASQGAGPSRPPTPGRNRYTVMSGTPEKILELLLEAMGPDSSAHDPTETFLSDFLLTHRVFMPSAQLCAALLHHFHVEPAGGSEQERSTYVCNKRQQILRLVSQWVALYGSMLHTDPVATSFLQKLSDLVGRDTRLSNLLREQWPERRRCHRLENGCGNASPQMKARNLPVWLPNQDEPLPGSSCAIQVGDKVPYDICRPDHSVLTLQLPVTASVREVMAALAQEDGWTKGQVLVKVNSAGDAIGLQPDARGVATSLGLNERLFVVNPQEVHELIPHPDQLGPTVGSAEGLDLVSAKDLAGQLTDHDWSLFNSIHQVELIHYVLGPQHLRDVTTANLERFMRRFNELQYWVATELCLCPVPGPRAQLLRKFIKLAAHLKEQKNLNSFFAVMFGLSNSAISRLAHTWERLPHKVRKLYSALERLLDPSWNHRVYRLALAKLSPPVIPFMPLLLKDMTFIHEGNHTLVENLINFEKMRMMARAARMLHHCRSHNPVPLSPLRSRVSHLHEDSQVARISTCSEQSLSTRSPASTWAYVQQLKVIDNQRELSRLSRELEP
UniProt Q8WZA2: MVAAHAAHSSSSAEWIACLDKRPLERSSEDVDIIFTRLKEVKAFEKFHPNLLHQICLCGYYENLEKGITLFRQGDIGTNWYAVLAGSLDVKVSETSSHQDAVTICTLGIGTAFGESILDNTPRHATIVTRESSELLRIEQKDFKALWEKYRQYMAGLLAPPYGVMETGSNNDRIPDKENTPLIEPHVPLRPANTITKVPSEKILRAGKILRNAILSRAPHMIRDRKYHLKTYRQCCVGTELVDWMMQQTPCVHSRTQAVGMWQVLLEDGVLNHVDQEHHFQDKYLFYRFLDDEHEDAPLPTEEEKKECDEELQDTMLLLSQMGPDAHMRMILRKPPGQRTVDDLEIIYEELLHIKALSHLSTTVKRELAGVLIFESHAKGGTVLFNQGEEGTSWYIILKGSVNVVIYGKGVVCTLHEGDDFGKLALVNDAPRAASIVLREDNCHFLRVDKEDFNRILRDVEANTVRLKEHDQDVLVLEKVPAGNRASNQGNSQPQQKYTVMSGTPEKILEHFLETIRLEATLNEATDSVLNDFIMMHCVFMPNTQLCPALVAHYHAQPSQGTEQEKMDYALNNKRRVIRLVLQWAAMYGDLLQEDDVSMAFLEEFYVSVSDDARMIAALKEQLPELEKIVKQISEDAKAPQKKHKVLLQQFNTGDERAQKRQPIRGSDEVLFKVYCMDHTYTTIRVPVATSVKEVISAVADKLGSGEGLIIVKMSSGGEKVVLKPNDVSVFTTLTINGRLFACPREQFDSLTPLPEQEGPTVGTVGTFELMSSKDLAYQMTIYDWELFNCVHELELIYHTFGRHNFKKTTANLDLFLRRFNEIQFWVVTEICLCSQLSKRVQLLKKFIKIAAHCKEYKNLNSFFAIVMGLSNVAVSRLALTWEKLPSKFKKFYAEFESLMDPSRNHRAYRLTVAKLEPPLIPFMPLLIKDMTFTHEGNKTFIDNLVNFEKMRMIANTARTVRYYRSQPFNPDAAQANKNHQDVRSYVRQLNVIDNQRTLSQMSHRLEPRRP

Columns and labels:
[1] = target: Ubiquitin carboxyl-terminal hydrolase 1 (Homo sapiens) (UniProt O94782); experiment: Inhibitors of USP1/UAF1: Pilot qHTS (AID 504865); settings: purified USP1/UAF1, Ub-rhodamine cleavage fluorescence; at 114 µM (top of the series);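 note: rhodamine fluorescence freed from ubiquitin-rhodamine substrate followed over time; top concentration of the series differs between compounds; % is set by controls: 0 for no effect and ±100 for the full control effect; nearly all actives have a fitted effect of over 35% in size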
[2] = target: Voltage-gated inwardly rectifying potassium channel KCNH2 (Homo sapiens) (UniProt Q12809); experiment: qHTS Assay for Small Molecule Inhibitors of the Human hERG Channel Activity (AID 588834); settings: U2OS BacMam hERG, FluxOR thallium flux fluorescence; at 46.1 µM (top of the series) unless noted;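 note: U2OS cells transduced with hERG by BacMam; top concentration of the series differs between compounds; % is set by controls: 0 for no effect and ±100 for the full control effect; lower thallium flux fluorescence means stronger hERG block; nearly all actives have a fitted effect of over 50% in size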
[3] = target: Luciferin 4-monooxygenase (Photinus pyralis) (UniProt P08659); experiment: Biochemical firefly luciferase enzyme assay for NPC (AID 624030);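 note: purified P. pyralis luciferase at 10 nM with luciferin and ATP substrate; 0% = DMSO and -100% = full luciferase inhibition by PTC124 control; nearly all actives have a fitted effect of over 70% in size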; settings: purified P. pyralis luciferase, luminescence, 5 min; at 58.6 µM (top of the series) unless noted
Procedure, shortened: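 Direct inhibition of firefly luciferase enzyme (10 nM final, 50 mM Tris Acetate) assessed by luminescence within 5 minutes. Percent activity scaled between DMSO and PTC124 positive control, with concentration-effect curves classified by fit quality and response.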

[4] = S16 Schwann cell viability assay (CellTiter-Glo assay) (AID 624031); settings: S16 rat Schwann cells viability, 24 h; at 57.5 µM (top of the series);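 note: cellular ATP luminescence as a viability measure; plate controls were DMSO-treated cells for no effect and cell-free wells for full effect; nearly all actives have a fitted effect of over 70% in size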
Procedure, shortened: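 CellTiter-Glo ATP luminescence counter-screen in untransfected S16 rat Schwann cells, 24h compound exposure at 37 degree Celsius after overnight seeding (500-750 cells/well); response scaled between cell-free wells and DMSO (0% activity), curves classed by r2 and magnitude.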

[5] = S16 Schwann cell PMP22 intronic element firefly luciferase assay (AID 624032); settings: S16 rat Schwann cells, PMP22 element FLuc, 24 h; at 57.5 µM (top of the series);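 note: plate controls were DMSO for no effect and PTC124 positive control mean for full effect; nearly all actives have a fitted effect of over 30% in size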
[6] = S16 Schwann cell PMP22 intronic element beta-lactamase assay (AID 624044; calls by dose curve;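 note: 0% = DMSO and -100% = potassium clavulanate positive control; nearly all actives have a fitted effect of over 15% in size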); settings: S16 rat Schwann cells, PMP22 element beta-lactamase FRET, 24 h; at 38.3 µM (top of the series)
[7] = qHTS Assay for Identifying Gametocytocidal Compounds (AID 743244);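 note: % is set by controls: 0 for no effect and ±100 for the full control effect; actives lower the fluorescent signal which means gametocytes are killed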; settings: P. falciparum 3D7 stage III-V gametocytes, alamarBlue, 72 h; max response: stronger effect = lower value
[8] = qHTS assay to identify small molecule inhibitors of chordoma cells - UCH-1 (AID 1259355); settings: UCH-1 chordoma viability, CellTiter-Glo, 48 h, combination, with auranofin plus four topoisomerase inhibitors; at 46.1 µM (top of the series); note: % is set by controls: 0 for no effect and ±100 for the full control effect; nearly all actives have a fitted effect of over 55% in size
Procedure, shortened: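 Seed 800 cells per well; incubate overnight at 37 C, 5% CO2. Add test compounds (15 concentrations), then the auranofin–topoisomerase-agent combination. Incubate 48hr, add CellTiter-Glo, wait 30min, read luminescence.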

[9] = qHTS assay to identify small molecule inhibitors of chordoma cells - UCH-2 (AID 1259356); settings: UCH-2 chordoma viability, CellTiter-Glo ATP luminescence, 48 h; at 46.1 µM (top of the series); note: % is set by controls: 0 for no effect and ±100 for the full control effect
[10] = P-glycoprotein substrates identified in KB-8-5-11 adenocarcinoma cell line, qHTS therapeutic library screen (AID 1346987); settings: KB-8-5-11 (P-gp overexpressing) viability, CellTiter-Glo, 72 h; at 44.5 µM (top of the series) unless noted; note: % is set by controls: 0 for no effect and ±100 for the full control effect; nearly all actives have a fitted effect of over 65% in size
KB-3-1 = experiment: Cytotoxic Profiling of Annotated Libraries Using Quantitative High-Throughput Screening (AID 1296008); settings: Five cell lines viability, CellTiter-Glo ATP luminescence, 48-72 h, stronger effect = lower value; note: % is set by controls: 0 for no effect and ±100 for the full control effect; nearly all actives have a fitted effect of over 60% in size
[11] = Drug repurposing screens with cells derived from glioblastoma tumor samples (AID 1345199); settings: GBM patient neurospheres viability, ATP luminescence, 48 h; Potency: tumour line A; series mostly up to 46.1 µM; note: % is set by controls: 0 for no effect and ±100 for the full control effect; nearly all actives have a fitted effect of over 40% in size
Procedure, shortened: (§1)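 Four patient lines of CD133+ GBM neurospheres were screened at several concentrations; hits were retested in those lines plus three slower-growing GBM lines, using 48-hour treatment and ATP-based viability.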

astro = experiment: as above; settings: viability, ATP luminescence, 48 h; at 45.9 µM (top of the series) unless noted
Procedure, shortened: as §1

[12] = AP1 Signaling Pathway (AID 357; active = well fitted curve in either direction with a large enough effect, not every such curve was filed as active;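 note: ME-180 reporter cells stimulated with EGF at its EC50 level; % is set by controls: 0 for no effect and ±100 for the full control effect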); settings: ME-180 AP-1-bla reporter, EGF-induced, beta-lactamase ratio, 5 h; at 7.69 µM (top of the series) unless noted
Procedure, shortened: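 Read-out was the 460nm/530nm emission ratio (excitation 405nm) after CCF4 loading for 2.5 hours at room temperature. Cells carried an AP-1-driven beta-lactamase reporter, were stimulated with EC50 EGF plus compound for 5 hours, and AC50 values came from titrations.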

[13] = NFAT Signaling Pathway (AID 444; active = well fitted curve in either direction with a large enough effect, not every such curve was filed as active;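 note: carbachol stimulus at about its EC50 of 1 µM final; % is set by controls: 0 for no effect and ±100 for the full control effect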); settings: Jurkat NFAT-bla M1, carbachol, beta-lactamase ratio, 5 h; at 7.69 µM (top of the series) unless noted
[14] = Stat Signaling Pathway (AID 446; active = well fitted curve in either direction with a large enough effect, not every such curve was filed as active;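 note: ME-180 cervical cancer cells given 40 pM IL-6 alongside compound; SIE-controlled beta-lactamase reporter measured as 460/530 nm FRET emission ratio; % is set by controls: 0 for no effect and ±100 for the full control effect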); settings: ME-180 SIE beta-lactamase reporter, IL-6 stimulated, 5 h; at 7.69 µM (top of the series) unless noted
Procedure, shortened: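 Reporter line: ME-180 cervical carcinoma, SIE-beta-lactamase. Treatment: compound with 40 pM IL-6, 5 hrs, 37 C, in low-serum OPTI-MEM with 10 mM HEPES pH 7.3. Detection: 460/530 nm fluorescence.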

[15] = target: Mitogen-activated protein kinase 10 (Mus musculus) (UniProt Q61831); experiment: JNK3 AlphaScreen Assay (AID 530; active = well fitted curve in either direction with a large enough effect, not every such curve was filed as active); settings: JNK3 lysate, c-Jun phosphorylation; at 11.4 µM (top of the series) unless noted
Procedure, shortened: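 Compound titrations were preincubated 15 minutes at room temperature with substrate, antibody and pre-activated JNK3-containing HepG2 lysate. Reactions were started with 10 uM ATP and stopped with EDTA-containing bead buffer for AlphaScreen detection.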

[16] = target: 3',5'-cyclic-AMP phosphodiesterase 4B (Homo sapiens) (UniProt Q07343); experiment: qHTS Assay for Inhibitors of PDE-IV (AID 607; active = well fitted activation curve with a large enough effect in the main read-out, with a control signal flat, not every such curve was filed as active; note: % of control where 0% means no effect); settings: HEK293 ACTOne CNG channel cells, membrane potential fluorescence; at 22.9 µM (top of the series)
Procedure, shortened: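 Cell-based read-out of cAMP via a modified cyclic nucleotide-gated channel and membrane potential dye (535/590 nm) in HEK293 cells expressing PDE4 endogenously. Compounds tested up to 22.9 uM final; 100 uM RO 20-1724 reference.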

[17] = target: Rap guanine nucleotide exchange factor 3 (Homo sapiens) (UniProt O95398); experiment: Confirmatory qHTS for antagonist of cAMP-regulated guanine nucleotide exchange factor 3 (EPAC1) (AID 1645880); settings: EPAC1 Rap1B-BODIPY-GDP exchange, fluorescence; at 115 µM (top of the series);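 note: plate controls were DMSO only for no effect and full effect of the ATA control for full effect; nearly all actives have a fitted effect of over 55% in size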
Procedure, shortened: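 Nucleotide exchange uses 100 nM EPAC1, 250 nM RAP1B-BODIPY-GDP and 50 uM GDP, with compounds in a concentration-titration series. After 5 min at room temperature, fluorescence (480 nm ex/540 nm em) is read every 5 min for 30 min. Data are normalized to control ATA and DMSO.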

[18] = target: Rap guanine nucleotide exchange factor 3 (Homo sapiens) (UniProt O95398); experiment: Confirmatory qHTS for agonist of cAMP-regulated guanine nucleotide exchange factor 3 (EPAC1) (AID 1645881); settings: EPAC1 Rap1B BODIPY-GDP exchange fluorescence, 100% = cAMP control response; at 154 µM (top of the series);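 note: EPAC1 catalysed release of BODIPY-GDP from Rap1B seen as fluorescence loss; nearly all actives have a fitted effect of over 75% in size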
[19] = target: Rap guanine nucleotide exchange factor 4 (Homo sapiens) (UniProt Q8WZA2); experiment: Confirmatory qHTS for agonist of cAMP-regulated guanine nucleotide exchange factor 4 (EPAC2) (AID 1645884); settings: EPAC2 GEF activity, Rap1B-BODIPY-GDP fluorescence, percent relative to cAMP agonist control; at 17.1 µM (top of the series) unless noted;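 note: nucleotide exchange releases bodipy-GDP from Rap1 and this lowers its fluorescence; % is set by controls: 0 for no effect and ±100 for the full control effect; nearly all actives have a fitted effect of over 65% in size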
[20] = target: Rap guanine nucleotide exchange factor 4 (Homo sapiens) (UniProt Q8WZA2); experiment: Confirmatory qHTS for antagonist of cAMP-regulated guanine nucleotide exchange factor 4 (EPAC2) (AID 1645885); settings: EPAC2 Rap1B-BODIPY-GDP exchange fluorescence, biochemical; at 12.7 µM (top of the series) unless noted; note: % is set by controls: 0 for no effect and ±100 for the full control effect; nearly all actives have a fitted effect of over 25% in size
[21] = target: Rap guanine nucleotide exchange factor 3 (Homo sapiens) (UniProt O95398); experiment: Counterscreen qHTS for antagonist of cAMP-regulated guanine nucleotide exchange factor 3 (EPAC1) (AID 1645888); settings: Rap1B-BODIPY-GDP nucleotide exchange, fluorescence; at 30.8 µM (top of the series) unless noted;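 note: fluorescence loss as bound BODIPY-GDP is released from Rap1B; % of control where 0% means no effect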
Procedure, shortened: (§2)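 Rap1B-BODIPY-GDP 250 nM + GDP 50 uM; cpds 7-pt, final 9.74 nM–152 uM (activator mode) or from 7.32 nM upwards (inhibitor mode); RT; FI 480/540 nm at 5 and 30 min, then ± cAMP, reread.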

[22] = target: Rap guanine nucleotide exchange factor 3 (Homo sapiens) (UniProt O95398); experiment: Counterscreen qHTS for agonist of cAMP-regulated guanine nucleotide exchange factor 3 (EPAC1) (AID 1645889); settings: EPAC1 Rap1B-BODIPY-GDP exchange, fluorescence; at 30.8 µM (top of the series) unless noted; note: % of control where 0% means no effect; nearly all actives have a fitted effect of over 40% in size
Procedure, shortened: as §2

O=C(OC1CN2CCC1CC2)c1ccccc1 (centres undefined)
inactive: activity change, negative = inhibition [1] -4.81% | activity change, negative = inhibition [2] 0.749% | activity change, negative = inhibition [3] -0.691% | activity change, negative = cytotoxicity [4] 4.74% | activity change, negative = inhibition [5] -4.06% | ratio activity, negative = inhibition [6] 2.98% | max response [7] 7.07% | activity, negative = inhibition [8] -6.1% | activity change, negative = inhibition [9] -0.949% | activity change, negative = cytotoxicity [10] 18.1% | max response (KB-3-1) 4.19% | Potency [11] | activity, negative = cell killing (astro) -16.2%

O=[As]c1ccc(S(=O)(=O)NCCO)cc1 (centres undefined)
inactive: activity change, negative = inhibition [12] 3.58% | activity change, negative = inhibition [13] 3.72% | activity, negative = inhibition [14] -8.53% | activity change, negative = inhibition [15] 0.0792% | activation (PDE inhibition) [16] -11.5%

CC1CCN(C(=O)Oc2c(Cl)cc(Cl)c3cccnc23)CC1
inactive: activity, negative = inhibition [17] -17.3% | activation [18] -0.174% | activation [19] 8.2% | activity change, negative = inhibition [20] -0.886% | activity change, negative = inhibition [21] -9.69% | activation [22] 5.15%
